# Results: PubChem BioAssay AID624172 (National Center for Advancing Translational Sciences (NCATS), 2012)
# Chains of the proteins cited; added tags and fusions are not shown. Lines headed by an entry give the natural chain unless they say otherwise; changes in a name come on top.
# UniProt P43220, whole entry, stated change not applied: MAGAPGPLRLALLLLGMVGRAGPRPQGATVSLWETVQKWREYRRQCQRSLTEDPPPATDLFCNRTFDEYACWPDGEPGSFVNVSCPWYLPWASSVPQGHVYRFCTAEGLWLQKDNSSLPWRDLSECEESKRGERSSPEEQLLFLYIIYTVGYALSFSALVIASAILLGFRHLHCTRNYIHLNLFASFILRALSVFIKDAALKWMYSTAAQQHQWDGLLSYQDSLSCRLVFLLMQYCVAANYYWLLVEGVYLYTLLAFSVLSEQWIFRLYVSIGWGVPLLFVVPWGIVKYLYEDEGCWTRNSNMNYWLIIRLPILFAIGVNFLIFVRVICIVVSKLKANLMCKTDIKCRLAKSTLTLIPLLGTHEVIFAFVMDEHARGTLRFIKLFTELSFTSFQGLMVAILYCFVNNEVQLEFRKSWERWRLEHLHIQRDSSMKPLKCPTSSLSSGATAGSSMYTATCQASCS
# This is a selection; strong and weak results do not stand in their true shares. Active and inactive are the calls of the source. Calls come from the whole dose curve; as a rule, active = well fitted activation curve with a large enough effect; inconclusive = small, poorly fitted or top-dose-only effect; inactive = no such curve, though single readings can be large or run the other way.
# Target: Glucagon-like peptide 1 receptor (Homo sapiens) (UniProt P43220)
# Test: qHTS of GLP-1 Receptor Agonists; note: % of control where 0% means no effect
# Settings: HEK293 GLP-1R CRE-luciferase, luminescence, 4-6 h, cells express a hypersensitive GLP-1R form
# Text: The overall goal of this project was to develop a novel assay for discovering small molecule ligands for class B1 G protein-coupled receptors (GPCRs). Very few agonists (or inverse agonists) with generally weak activity for this entire group of physiologically important receptors are known to date. To establish proof-of-principle that this critical bottleneck can be overcome with a suitable screening approach, our studies focused on the class B1 receptor for glucagon-like peptide-1 (GLP-1R), a potential therapeutic target for diabetes and neurodegenerative disease.
# The assay was developed in a "mix and measure" format using a cell-based functional readout. Toward this goal, stably transfected HEK293 cell clones were established that co-express (i) a cAMP-responsive luciferase reporter gene, and (ii) GLP-1Rs that upon ligand interaction either stimulate (agonists) or inhibit (inverse agonists) luciferase activity. In different cell lines to be used for screening, expressed GLP-1Rs are specifically optimized for high sensitivity detection of either weak agonists (hypersensitive receptor) or inverse agonists (constitutively active receptor mutant). In addition, control cell lines were developed that express either the cAMP-responsive reporter gene without recombinant GLP-1Rs (enabling initial exclusion of GLP-1R independent effects of candidate probes), or the reporter gene together with wild type GLP-1Rs (for confirmation of probe activity at this receptor), or the reporter gene in combination with the constitutively active orphan receptor GPR119 (enabling initial exclusion of GLP-1R independent inhibitory effects of candidate inverse agonists).
# To that end, this assay was optimized for 1536-well format and screened against the MLSMR.
# NIH Molecular Libraries Probe Production Network [MLPCN]
# NIH Chemical Genomics Center [NCGC]
# PI Name: Martin Beinborn, Tufts Medical Center
# In a white solid 1536-well plate, 6 uL of cells are dispensed in DMEM without phenol red, 10% Nu serum, and 1% pen-strep medium. The plates are then incubated for 12 hours at 37 deg C at 5% CO2 before 23 nL of compounds are added. After a 4-6 hr incubation at37 deg C and 5% CO2, 3 uL of detection reagent are added and after a 12 min incubation at RT, a luminescent read is obtained on the ViewLux.
# [1] = at 45.6 µM (top of the series) unless noted
smiles,measurement,setting,value
CP(=O)(Nc1ccc(Cl)cc1Cl)Oc1ccccc1 (stereo unspecified),activation,[1],inactive: -2.99%
CCCCCCCCCCCCCCCC1C[N+](C)(C)CCOP(C)(=O)O1 (stereo unspecified),activation,[1],inactive: 5.6%
CP(=O)(OCCOc1ccccc1)OCCOc1ccccc1,activation,[1],inactive: -4.38%
O=[N+]([O-])c1cc([N+](=O)[O-])c(Nc2cccnc2)c([N+](=O)[O-])c1,activation,[1],inactive: -1.62%
O=[N+]([O-])c1ccc2c(c1)C=Nc1ccccc1O2,activation,[1],inactive: 8.84%
Cc1cccc(C)c1OP(C)(N)=O (stereo unspecified),activation,[1],inactive: -1.84%
CC(C)(C)c1ccc(OP(C)(=O)Nc2ccc(SC(F)(F)F)cc2)cc1 (stereo unspecified),activation,[1],inactive: -35.7%
Cc1ccc(NP(C)(=O)Oc2ccccc2)c(C)c1 (stereo unspecified),activation,[1],inactive: 14.5%
COc1ccccc1OP(C)(=O)Nc1ccc(C)cc1 (stereo unspecified),activation,[1],inactive: -4.33%
CCOC(=O)c1ccc(NP(C)(=O)Oc2ccccc2)cc1 (stereo unspecified),activation,[1],inactive: 4.57%
Cc1cc(C)cc(OP(C)(N)=O)c1 (stereo unspecified),activation,[1],inactive: -3.66%
COc1ccc(OP(C)(=O)Nc2cccc(F)c2)cc1 (stereo unspecified),activation,[1],inactive: 1.81%
COc1ccccc1OP(C)(=O)Nc1cc(Cl)ccc1C (stereo unspecified),activation,[1],inactive: 8.65%
CCN(CC)CCCOC(=O)C(O)(c1ccccc1)c1ccccc1,activation,[1],inactive: -2.91%
COc1ccccc1-c1ccccn1.O=[N+]([O-])c1cc([N+](=O)[O-])c(O)c([N+](=O)[O-])c1,activation,[1],inactive: -2.41%
O=[N+]([O-])[O-].[NH4+],activation,[1],inactive: -2.44%
CP(=O)(Oc1ccccc1)OC(c1ccccc1)C(F)(F)F (stereo unspecified),activation,[1],inactive: -3.08%
Cc1cccc(C)c1OP(C)(=O)Nc1ccc(SC(F)(F)F)cc1 (stereo unspecified),activation,[1],inactive: 7.08%
CP(=O)(Nc1ccc(SC(F)(F)F)cc1)Oc1ccc(Cl)cc1 (stereo unspecified),activation,[1],inactive: -5.82%
Cc1cc(C)cc(OP(C)(=O)Nc2ccc(SC(F)(F)F)cc2)c1 (stereo unspecified),activation,[1],inactive: 10.6%
CP(=O)(NC(=O)Nc1ccccc1)Oc1ccccc1 (stereo unspecified),activation,[1],inactive: 0.949%
CCc1ccc(OP(C)(=O)N2CCN(c3ccc([N+](=O)[O-])cc3)CC2)cc1 (stereo unspecified),activation,[1],inactive: 10.5%
CN(C)CCS,activation,[1],inactive: -0.0367%
CCOC(=O)c1ccc(NP(C)(=O)Oc2ccc(OC)cc2)cc1 (stereo unspecified),activation,[1],inactive: 18.6%
O=[N+]([O-])c1cc([N+](=O)[O-])c(O)c([N+](=O)[O-])c1.c1ccc(Oc2ccncc2)cc1,activation,[1],inactive: -0.538%
CCOP(C)(=S)SCC(=O)NC(C)C(=O)O (stereo unspecified),activation,[1],inactive: -12%
CP(=O)(Nc1ccccn1)Oc1ccc(Cl)cc1 (stereo unspecified),activation,[1],inactive: -1.93%
CP(=S)(Nn1cnnc1)Oc1ccccc1 (stereo unspecified),activation,[1],inactive: 0.363%
CP(=O)(Nc1ccccc1Br)Oc1ccccc1 (stereo unspecified),activation,[1],inactive: 1.28%
COc1ccccc1OP(C)(=O)Nc1ccccc1 (stereo unspecified),activation,[1],inactive: 4.29%
CC1=C2N=C(C=C3N=C(C(C)=C4[N-][C@@](C)([C@@H]5N=C1[C@](C)(CCC(=O)NC[C@@H](C)OP(=O)([O-])O[C@H]1[C@@H](O)[C@@H](n6cnc7cc(C)c(C)cc76)O[C@@H]1CO)[C@H]5CC(N)=O)[C@@](C)(CC(N)=O)[C@@H]4CCC(N)=O)[C@@](C)(CC(N)=O)[C@@H]3CCC(N)=O)C(C)(C)[C@@H]2CCC(N)=O.[C-]#N.[Co+3],activation,[1],inactive: -2.73%
O=[N+]([O-])c1cc([N+](=O)[O-])c(Nc2nnnn2CCO)c([N+](=O)[O-])c1,activation,[1],inactive: -11.7%
COc1ccccc1OP(C)(=O)Nc1c(C)cccc1C (stereo unspecified),activation,[1],inactive: -9.5%
CN1CCCCC1COC(=O)C1(O)c2ccccc2CCc2ccccc21 (stereo unspecified),activation,[1],inactive: -1.48%
CCCOc1ccc(NP(C)(=O)Oc2ccc(Cl)cc2)cc1 (stereo unspecified),activation,[1],inactive: 14.3%
CP(=O)(Nc1ccc(SC(F)(F)F)cc1)Oc1ccccc1 (stereo unspecified),activation,[1],inactive: 3.32%
O=[N+]([O-])c1cc([N+](=O)[O-])c(-n2nnc3ccccc32)c([N+](=O)[O-])c1,activation,[1],inactive: 2.36%
CC(C)N(CCCl)C(C)C,activation,[1],inactive: 1.42%
CN(Cc1cccnc1)C(=O)COc1ccc(Cl)c(Cl)c1.O=[N+]([O-])c1cc([N+](=O)[O-])c(O)c([N+](=O)[O-])c1,activation,[1],inactive: 7.11%
O=[N+]([O-])c1cc([N+](=O)[O-])c(-c2cnn(-c3ccccc3)c2)c([N+](=O)[O-])c1,activation,[1],inactive: 11.7%
Cc1nc2ccc3ccccc3c2s1.O=[N+]([O-])c1cc([N+](=O)[O-])c(O)c([N+](=O)[O-])c1,activation,[1],inactive: 2.73%
COc1ccccc1OP(C)(=O)Nc1cccc(Br)c1 (stereo unspecified),activation,[1],inactive: -2.8%
CCOC(=O)c1ccc(NP(C)(=O)Oc2cc(C)cc(C)c2)cc1 (stereo unspecified),activation,[1],inactive: 18.3%
Cc1cc(C)cc(OP(C)(=O)Nc2ccc(C)cc2C)c1 (stereo unspecified),activation,[1],inactive: 13%
Cc1ccc(C)c(NP(C)(=O)Oc2ccccc2)c1 (stereo unspecified),activation,[1],inactive: 1.87%
Cc1cc(C)cc(OP(C)(=O)Nc2ccccn2)c1 (stereo unspecified),activation,[1],inactive: -3.82%
CP(=O)(Nc1cccc(Br)c1)Oc1ccccc1 (stereo unspecified),activation,[1],inactive: 14%
O=[N+]([O-])c1cccc([N+](=O)[O-])c1,activation,at 45.6 µM (top of the series),inactive: 13.8%
same,activation,at 96 µM (top of the series),inactive: -7.87%
CC1=NCCc2c1[nH]c1ccccc21.O=[N+]([O-])c1cc([N+](=O)[O-])c(O)c([N+](=O)[O-])c1,activation,[1],inactive: -20.2%
O=[N+]([O-])OCC(CO[N+](=O)[O-])(CO[N+](=O)[O-])CO[N+](=O)[O-],activation,[1],inactive: -2.49%
